{
  "sequences": {"note": "The chains behind the UniProt entries cited, without tags or fusion partners.", "UniProt P61073, whole entry": "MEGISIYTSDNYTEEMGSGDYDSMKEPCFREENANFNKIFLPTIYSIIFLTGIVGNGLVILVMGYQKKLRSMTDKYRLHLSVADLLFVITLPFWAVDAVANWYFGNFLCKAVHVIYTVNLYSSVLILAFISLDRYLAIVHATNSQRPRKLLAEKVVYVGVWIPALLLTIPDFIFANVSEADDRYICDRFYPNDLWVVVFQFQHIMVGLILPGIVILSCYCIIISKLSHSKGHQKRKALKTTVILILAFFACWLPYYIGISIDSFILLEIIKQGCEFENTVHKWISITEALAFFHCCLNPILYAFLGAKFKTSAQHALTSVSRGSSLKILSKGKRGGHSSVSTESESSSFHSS"},
  "source": "patent US20090036416A1",
  "about": "“Novel CXCR4 Antagonist and Use Thereof” (Kyoto University, priority 2005, published 2009)",
  "key": {"[1]": {"target": "T1, CXCR4 (Homo sapiens, UniProt P61073)", "experiment": "CXCR4 antagonistic activity: inhibition of Ca2+ movement induced by SDF-1a in CXCR4 transfected CHO cells (Fura-2)", "format": "cell-based", "conditions": "inhibition of Ca2+ movement induced by SDF-1a (30 nM) via CXCR4", "procedure": "Various aromatic compounds each having a dipicolylamine-zinc complex were prepared, and their CXCR4 antagonistic effects were examined using the following method.\nA CXCR4 transfected Chinese hamster ovary(CHO) cells (3×10^4 cell/100 μL/well) were plated in each well of a flat-bottomed micro-titer tray. The samples were incubated in a CO2 incubator at 37° C., and the cells were loaded in Ham F-12 buffer(80 μL/well) for an hour at 37° C., together with 5 μM Fura-2AM (Dojindo, Kumatomo, Japan), 2.5 mM Probenecid (Sigma) and 20 mM HEPES(pH7.4).\nThereafter, the cells were washed twice with Hank's balanced salt solution (100 μL×2), and placed in a spectrofluorimeter (96 well Fluorescence Drug Screening System, Hamamatsu Photonics K.K. Japan). 30 seconds after the measurement started, the cells were incubated in Hank's balanced salt solution with plural test compounds of different concentrations. After 3 minutes, recombinant SDF-1a (PreproTech, 30 nM/[…]/well) was added.\nChanges of the CXCR4 transfect CHO cell system loaded with Fura2-A[Ca^2+], were recorded in real time with a modification method of Fura-2. The CXCR4 antagonistic effect was measured based on the inhibition of Ca^2+ movement induced by the stimulation of SDF-1a via CXCR4 (IC50)."}, "[2]": {"target": "T1, CXCR4", "experiment": "CXCR4 binding activity: inhibition of 125I-SDF-1a bonding to CXCR4 transfected CHO cells", "conditions": "inhibition of 125I-SDF-1a (0.1 nM) bonding, 1 h at 0° C.", "procedure": "A CXCR4 transfected CHO cells suspended in Ham's F-12 buffer (0.5% bovine serum albumin, 20 mM HEPES buffer) were placed in a silicon-coated test tube (5×10^5 cells/120 μL/well). Cold SDF-1 a (Final concentration 0.1 μM, 15 μL/well) and a test object having one of various concentrations (15 μL/well) was added to the test tube. Thereafter, ^125I-SDF-1a (PerkinElmer, final concentration=0.1 nM, 15 μL/well) was added. The sample was incubated for an hour at 0° C., mixed with oil (dibutyl phthalate: olive oil=4:1(v/v), 500 μL/well), then centrifuged for 2 minutes at 14,000 rpm. After removing the water layer and the organic layer, the bottom part was separated from the test tube and was placed in a radioimmunoassay counting tube. Thereafter, count per minute (CPM) was measured with a γ-counter. The inhibition rate of the test compound with respect to ^125I-SDF-1 a bonding was found by the following equation. IC50 denotes a concentration of a test object whose inhibition rate is 50%.\nInhibition rate (%)=(Et−Ea)/(Et−Ec)×100"}},
  "data": [
    {"substance": "bis(2,2′-dipicolylamino)-p-xylene/zinc complex [Example Compound 1]", "values": [
      {"measurement": "IC50", "setting": "[1]", "value": 100, "unit": "nM"},
      {"measurement": "IC50", "setting": "[2]", "value": 47, "unit": "nM"}
    ]}
  ]
}
